In the library only some 13% were active in any assay of this set; here they are far more common.
KDM4E inh: JMJD2E (human) inhibition; JMJD2E catalytic domain, FDH-coupled NADH fluorescence (FDH is formaldehyde dehydrogenase); Potency, µM (doses to about 57.1 µM), inactives show at the top dose activity change, negative = inhibition, actives largely listed as inhibitors; 230,000 tested, 1.6% active; active = well fitted inhibition curve with a large enough effect, not every such curve was filed as active; inconclusive = small, poorly fitted or top-dose-only effect, or another doubt; inactive = no such curve, though single readings can be large or run the other way;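 note: potency is the fitted concentration of half-maximal effect; 0% = wells with enzyme and -100% = buffer wells without enzyme; nearly all actives have a fitted effect of over 50% in size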
G9a inh: inhibitors of human histone lysine methyltransferase G9a; Q96KQ7; G9a H3K9 monomethylation, AlphaScreen, 2 h; Potency, µM (titrated, usually from 102 µM), for the others: top-dose activity, negative = inhibition, most hits filed as inhibitors; 350,000 tested, 8.8% active; AID 504332; note: potency is the fitted concentration of half-maximal effect; % is set by controls: 0 for no effect and ±100 for the full control effect; nearly all actives have a fitted effect of over 75% in size
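Signal arises when biotinylated H3K9 peptide, once monomethylated, bridges streptavidin donor and antibody-captured acceptor beads. Enzyme at 20 nM was preincubated 15 min with test compounds; peptide 500 nM and SAM 20 uM then reacted for 2 h.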
Sfp PPTase inh: qHTS Assay for Inhibitors of Bacillus subtilis Sfp phosphopantetheinyl transferase (PPTase). Biochemical Sfp PPTase activity, qHTS. Potency, µM, for inactives: max response, negative = inhibition, most hits filed as inhibitors. 310,000 compounds, 3.5% hits. 4'-phosphopantetheinyl transferase ffp (Bacillus subtilis), Q9F4F7; active = well fitted inhibition curve with a large enough effect; inconclusive = small, poorly fitted or top-dose-only effect, or another doubt; inactive = no such curve, though single readings can be large or run the other way;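 note: the enzyme is Sfp with the accession as filed and its product quenches rhodamine fluorescence; potency is the fitted concentration of half-maximal effect; 0% = enzyme reaction without inhibitor and -100% = no enzyme wells; top concentration of the series not given in the record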
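Compounds were incubated with enzyme (final 15 nM) for 15 min at room temperature before substrate addition started the reaction. Fluorescence at 525 nm excitation, 598 nm emission was recorded immediately and after 30 minutes.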
Lamin A splicing: modulators of lamin A splicing | HeLa LMNA splicing GFP/RFP minigene ratio, 48 h | Potency, µM (doses to about 46.1 µM), inactives show at the highest dose ratio change, negative = inhibition, usual class: inhibitors | 200,000 tested, 0.01% active | AID 1487; active = well fitted inhibition curve with a large enough effect in the signal ratio, with a control signal flat, not every such curve was filed as active; inconclusive = small, poorly fitted or top-dose-only effect, or effect the other way, or a change in a side signal; the % refers to the signal ratio; note: potency is the fitted concentration of half-maximal effect; % is set by controls: 0 for no effect and ±100 for the full control effect
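Read-out is the ratio of GFP to DsRed2 object intensity, acquired by 488 nm laser-scanning cytometry on HeLa lamin A-EGFP minigene reporter cells. Compound incubation 48 hrs at 37 °C in Opti-MEM with 2% FBS; DMSO 0.5% final.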
miR-21 FLuc: miR-21 reporter, rising signal. HeLa miR-21 FLuc reporter, luciferase, 48 h. Potency, µM (titrated, usually from 38.3 µM), without a hit: at the top dose reporter change, positive = more light. 340,000 tested, under 10 active. AID 2288; active = well fitted rising curve with a large enough effect; inconclusive = small, poorly fitted or top-dose-only effect; inactive = no such curve, though single readings can be large or run the other way;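 also: % of control where 0% means no effect; miR-21 action dims this reporter so a rising signal means less miR-21 action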
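HeLa cells endogenously expressing miR-21, stably carrying CMV-driven firefly luciferase with a downstream miR-21 binding site, 2000 cells/well. Titrations up to approximately 40 uM, 48 hours; luciferase luminescence read.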
ALDH1A1 inh: inhibitors of human aldehyde dehydrogenase 1A1; Purified ALDH1A1, NADH fluorescence, propionaldehyde substrate; Potency, µM (doses to about 75.3 µM), for the others: top-dose activity, negative = inhibition, actives largely listed as inhibitors; 220,000 tested, 7.3% active; AID 1030; active = well fitted inhibition curve with a large enough effect, not every such curve was filed as active; inconclusive = small, poorly fitted or top-dose-only effect, or another doubt; inactive = no such curve, though single readings can be large or run the other way;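 note: potency is the fitted concentration of half-maximal effect; plate controls were no enzyme wells and a reference inhibitor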
* = called active by the depositor; ? = inconclusive; nt = not tested or not shown; ! = repeats disagree; [ ] = remark or other dose. Unless noted, calls come from the whole dose curve; as a rule, active = well fitted curve in the direction sought with a large enough effect; inconclusive = small, poorly fitted or top-dose-only effect, or another doubt; inactive = no such curve, though single readings can be large; an effect the other way counts as inactive or inconclusive.

KDM4E inh | G9a inh | Sfp PPTase inh | Lamin A splicing | miR-21 FLuc | ALDH1A1 inh | smiles
3% | ? | 8% | nt | -16% | nt | Cc1ccc(Nc2nc(C(=O)N3CCC(C(=O)NC(C)C)CC3)cs2)cc1
-8% | 40µM* | 45µM* | -10% | -70% | ? | Cc1ccc(Nc2nc(C3CC3)cs2)cc1
-7% | 40µM* | ? | -5% | -49% | ? | Clc1ccc(Nc2nc(C3CC3)cs2)cc1
nt | 0%[59 µM] | nt | nt | 1% | nt | Cc1[nH]c(=O)[nH]c(=O)c1S(=O)(=O)Nc1cccc(Cl)c1C
nt | 40µM* | -8% | nt | -9% | nt | Cc1ccc(NS(=O)(=O)c2cccc3nsnc23)cc1[N+](=O)[O-]
6% | -15% | 2% | -1% | -27% | 25µM* | O=S(=O)(Nc1ccc2c(c1)OCCO2)c1cccc2nsnc12
-10% | ? | 14% | -4% | -12% | -3% | O=C(CCNS(=O)(=O)c1cccc2nsnc12)Nc1ccc2c(c1)OCCO2
nt | 73% | ? | nt | -1% | nt | CCn1nc(C)c(CNC(=O)c2cc(COc3ccccc3SC)on2)c1C
4% | 45µM* | ? | ? | 14% | 15% | CO/N=C/c1ccc(N2CCN(C(=O)c3ccc(F)cc3)CC2)c([N+](=O)[O-])c1
1% | 7% | 8% | 9% | 21% | ? | Cn1c(=O)n(C)c2cc([N+](=O)[O-])c(N3CCN(C(=O)c4ccccc4Cl)CC3)cc21
-2% | ? | 13% | ? | 16% | ? | CO/N=C/c1ccc(N2CCN(C(=O)c3cccc(C(F)(F)F)c3)CC2)c([N+](=O)[O-])c1
-3% | 20µM* | 4% | -21% | 27% | 0% | CO/N=C/c1ccc(N2CCN(C(=O)c3ccc(Cl)cc3Cl)CC2)c([N+](=O)[O-])c1
2% | 4%[12.7 µM] | 11% | -9% | -3% | 25µM* | CC1Cc2ccccc2N1C(=O)CSc1nnc(CNc2ccccc2)o1 (stereo unspecified)
-4% | ? | -1% | -3% | -4% | ? | COc1ccc(NCc2nnc(SCC(=O)N3CCCc4ccccc43)o2)cc1
-2% | -5% | 1% | -3% | 2% | 8.9µM* | O=C(CSc1nnc(CNc2ccccc2)o1)N1CCCc2ccccc21

Part of the list above in order of molar mass, rising.
KDM4E inh | G9a inh | Sfp PPTase inh | Lamin A splicing | miR-21 FLuc | ALDH1A1 inh | smiles
-7% | 40µM* | ? | -5% | -49% | ? | Clc1ccc(Nc2nc(C3CC3)cs2)cc1
6% | -15% | 2% | -1% | -27% | 25µM* | O=S(=O)(Nc1ccc2c(c1)OCCO2)c1cccc2nsnc12
-4% | ? | -1% | -3% | -4% | ? | COc1ccc(NCc2nnc(SCC(=O)N3CCCc4ccccc43)o2)cc1
-10% | ? | 14% | -4% | -12% | -3% | O=C(CCNS(=O)(=O)c1cccc2nsnc12)Nc1ccc2c(c1)OCCO2
-2% | ? | 13% | ? | 16% | ? | CO/N=C/c1ccc(N2CCN(C(=O)c3cccc(C(F)(F)F)c3)CC2)c([N+](=O)[O-])c1

(cont.)
KDM4E inh | G9a inh | Sfp PPTase inh | Lamin A splicing | miR-21 FLuc | ALDH1A1 inh | smiles
nt | -32%[59 µM] | nt | -19%[46 µM] | ? | nt | CC(=O)C1=C(OC(=O)C(C)C)c2ccccc2S(=O)(=O)N1Cc1ccccc1
nt | -31% | nt | nt | nt | nt | Cc1ccc(C(=O)NCC(=O)NCC(c2ccco2)N2CCCCC2)cc1C (stereo unspecified)
-5% | 50µM* | -8% | ? | -4% | -9% | Cc1ccc2[nH]c3c(N4CCN(Cc5ccc6c(c5)OCO6)CC4)ncnc3c2c1
? | 45µM* | -8% | ? | -29% | ? | COc1cccc2[nH]c3c(N4CCN(Cc5ccc6c(c5)OCO6)CC4)ncnc3c12
? | nt | -7% | 12% | ? | -6% | COc1ccc2c(c1)[nH]c1c(N3CCN(Cc4ccc5c(c4)OCO5)CC3)ncnc12
2% | 8%[59 µM] | -9% | ? | -1% | 4µM* | O=C(COC(=O)/C=C/C(=O)OCC(=O)NC12CC3CC(CC(C3)C1)C2)NC12CC3CC(CC(C3)C1)C2
-3% | -32%[59 µM] | -3% | -1% | -15% | 25µM* | Cc1cnc(C(=O)OCC(=O)NC23CC4CC(CC(C4)C2)C3)cn1
nt | -6%[12.7 µM] | -8% | nt | nt | ? | O=c1c(-c2cc(F)cc(F)c2)nc2cnc(N3CCOCC3)nc2n1C1CC1
? | 20µM* | -15% | 8% | -4% | 5% | COCCCNCCOc1ccc(C(C)(C)c2ccccc2)cc1
nt | 45µM* | -19% | nt | -7% | nt | CC(C)(C)c1ccc(OCCNCc2ccccc2)cc1
? | 7.9µM* | -20% | 13% | -6% | ? | CCc1cccc(OCCCCNCCOC)c1
? | 7.9µM* | 56µM* | 1% | -10% | ? | CNCCCOc1ccc(C(C)(C)c2ccccc2)cc1
nt | nt | -5% | nt | 7% | nt | CC(C)(C)c1ccc(C(=O)NCCOc2ccccc2)cc1
6% | 57%[12.7 µM] | 1% | nt | 7% | 4% | CC(C)(C)c1ccc(OCCNC(=S)Nc2ccccc2)cc1
5% | 4% | 16% | 19%[46 µM] | 0% | 4% | O=C(CCCOc1ccccc1)NCCc1ccccc1

Next compounds follow.
KDM4E inh | G9a inh | Sfp PPTase inh | Lamin A splicing | miR-21 FLuc | ALDH1A1 inh | smiles
nt | 10µM* | -26% | nt | ? | nt | c1ccc(CCNCCOc2ccccc2)cc1
-10% | 16µM* | 40µM* | nt | -6% | 16µM* | CC(C)(c1ccccc1)c1ccc(OCCCN2CCNCC2)cc1
? | 19µM*! | -8% | ? | -60% | ? | NNCCc1ccccc1
nt | -44%[2.33 µM] | ? | nt | 0% | nt | CC(C)(c1ccccc1)c1ccc(OCCN2CCOCC2)cc1
nt | 4%[12.7 µM] | 10% | nt | nt | -5% | O=C(Nc1ccccc1)N1CCC2(CC1)CCN(C(=O)c1ccco1)CC2
nt | -3%[59 µM] | nt | nt | 4% | nt | CCn1cc2nc(SCc3cc(C)ccc3C)n(Cc3ccc(C)cc3)c(=O)c2n1
-25% | 3% | -2% | -5% | -4% | 20µM* | COC(=O)COc1cc(Br)c(/C=C2/SC(=O)N(CC(=O)N3CCCC3)C2=O)cc1OC
nt | 12% | 9% | nt | 6% | nt | Cc1cc(NS(=O)(=O)c2c(C(=O)N3CCOCC3)c(C)n(C)c2C)ccc1Br
? | 20µM* | ? | ? | -5% | ? | COC(=O)c1c(NC(=O)C2(C)Cc3ccccc3C(=O)O2)sc2c1CCCC2 (stereo unspecified)
-3% | 50µM* | 16% | 1% | -13% | 10% | COc1ccccc1NC(=O)C1(C)Cc2ccccc2C(=O)O1 (stereo unspecified)
17% | 0%[59 µM] | -6% | 0% | -3% | -8% | COC(=O)c1c(NC(=O)C2Cc3ccccc3C(=O)O2)sc2c1CCCC2 (stereo unspecified)
-11% | 8% | 10% | nt | 5% | nt | CC(C)(C)c1ccc2c(c1)OC(C(=O)N/N=C\c1ccncc1)CO2 (stereo unspecified)
-2% | 6% | 14% | ? | 12% | 20µM* | O=C(N/N=C\c1cc(Br)cs1)C1COc2ccccc2O1 (stereo unspecified)
-1% | -17%[59 µM] | -24% | -23% | 1% | 25µM* | O=C(N/N=C/C=C/c1ccc([N+](=O)[O-])cc1)C1COc2ccccc2O1 (stereo unspecified)
nt | 50µM* | 9% | nt | 28% | nt | CC(C)(C)c1ccc2c(c1)OC(C(=O)N/N=C\c1ccc[nH]1)CO2 (stereo unspecified)
-7% | ? | 40µM* | nt | 23% | nt | O=C(N/N=C\C=C\c1ccco1)C1COc2ccccc2O1 (stereo unspecified)
? | 28% | 3% | 5% | -2% | ? | O=C(N/N=C\C=C\c1ccc2c(c1)OCO2)C1COc2cc3ccccc3cc2O1 (stereo unspecified)

From PubChem
